Laboratory results reported in patent US8178083B2, “Treatment of optic neuritis” (Ares Trading, S.A., priority 2005, dated 2012).

Legend:
[1] = system: patients with RRMS and unilateral ON; assay: Example 2 serial OCT open label proof-of-concept study in RRMS and unilateral optic neuritis; format: in vivo, human; details: pulse IV MP followed by Rebif titrated to 44 mcg tiw; for number of sectors (of 12 per eye) with significantly decreased RNFL thickness: clinically affected eyes
From the text: Objective: Optical coherence tomography (OCT) measures retinal nerve fiber layer (RNFL) thickness. This study used serial OCT in patients with remitting/relapsing multiple sclerosis (RRMS) and optic neuritis (ON) to assess axonal changes concurrent with high dose, high frequency interferon beta-1a sc (Rebif) therapy. Methods: Patients (N=18) in this ongoing prospective open label proof-of-concept study were included if they had RRMS and unilateral ON and were excluded if they had edema of the optic nerve at baseline or were currently treated with other DMTs. Patients were treated with pulse IV methylprednisolone (MP) according to the Optic Neuritis Treatment Trial protocol, followed immediately by Rebif at 22 mcg tiw titrated to 44 mcg tiw within 2 weeks. RNFL thickness was measured at 12 sectors per eye with Stratus OCT at baseline, 3, 6, 9, and 12 months. Paired t-tests compared changes from baseline to each time point for affected and unaffected eyes separately. MRI data were analyzed for correlation with OCT in each eye type. Response (>4% increase from baseline) was analyzed by sector and number of responding sectors in each eye type.

[2] = system: Vesicular Stomatitis virus in WISH cells; format: cell-based
[3] = system: patient with demyelinating optic neuritis and remitting/relapsing MS; assay: Example 1 case study, optical coherence tomography (OCT) in optic neuritis associated with MS; format: in vivo, human
From the text: Objective: To evaluate effect of subcutaneous interferon beta-1a (Rebif) on axonal loss/survival in demyelinating optic neuritis (ON) associated with multiple sclerosis (MS) using optical coherence tomography (OCT). A case study is presented.
Methods: The patient underwent a standard neuro-ophthalmic examination, including visual acuity, afferent pupil defect, intraocular pressure, and color vision testing. MRI assessed brain and spinal cord lesion load. For purposes of analysis, each eye was divided into 12 sectors and OCT measurements were taken at baseline, 3-, 6-, 9- and 12-months. Results: A person presented with unilateral ON in the right eye, and was treated with high dose intravenous methylprednisolone according to the Optic Neuritis Treatment Trial protocol. The patient was asymptomatic for over 4 years, then presented with ON in the left eye and a large hyperintense MRI brain lesion. […] Upon diagnosis with remitting/relapsing MS, the patient was treated with methylprednisolone, followed by Rebif sc 44 mcg tiw. […] Conclusions: OCT is a reliable and non-invasive means of quantifying axon loss/survival. […] RFNL thickness in the unaffected eye may decrease over time. […] Early diagnosis and aggressive treatment with IFN beta may improve long-term clinical outcomes.

[4] = methylprednisolone followed by Rebif sc 44 mcg tiw

Substance: interferon beta-1a [Rebif]
- number of sectors (of 12 per eye) with significantly decreased RNFL thickness ([1]; by 3 months): 5 sectors
- number of sectors (of 12 per eye) with significantly decreased RNFL thickness ([1]; by last post-baseline visit (up to 12 months)): 6 sectors
- change of RNFL thickness ([1]; clinically unaffected eyes, at 3 months or last post-baseline visit): no significant changes
- antiviral activity contained ([2]; Rebif 44 mcg): approximately 12 MIU
- specific activity (antiviral activity) ([2]; reference standard calibrated against WHO natural interferon beta standard): approximately 270 million international units (M
- relapse-free period ([3]; Rebif sc 44 mcg tiw): 24 months
- tolerability ([3]; Rebif sc 44 mcg tiw): well tolerated
- new MRI lesions ([3]; during the last 24 months, Rebif sc 44 mcg tiw): without evidence of new MRI lesions
- serial OCT analysis, RNFL thickness, left eye ([3]; left eye, methylprednisolone followed by Rebif sc 44 mcg tiw): slow increase in RNFL thickness in a subset of sectors
- MRI brain lesion [3, 4]: resolved with a small area of decreased signal intensity
- visual measures [3, 4]: improved
- serial OCT analysis, right eye ([3]; right eye (earlier ON), methylprednisolone followed by Rebif sc 44 mcg tiw): continued axonal loss
